# Results reported in patent US20210087290A1, “COMPOUNDS WHICH SPECIFICALLY BIND TO CD38 FOR USE IN THE TREATMENT OF NEURODEGENERATIVE AND INFLAMMATORY DISEASES” (ENCEFA, priority 2017, published 2021).
# How the values were obtained:
# cortical neurons = test: Measurement of glucose uptake in cortical neurons (2-NBDG); assay type: cell-based, Wistar rat; conditions: acute treatment 30 min, 7 DIV; HB7 1 μg/mL, NAD^+ 3 mM, insulin 100 nM
# Procedure: Animals were treated in accordance with the Guide for the Care and Use of Laboratory Animals (National Research Council, 1996), European Directive 86/609, and the guidelines of the local institutional animal care and use committee. Cultures were prepared from the cortex of gestational age 15.5 Wistar rat embryos (Janvier Breeding Center, Le Genest St Isle, France). Dissociated cells in suspension obtained by mechanical trituration of cortical tissue pieces were seeded onto tissue culture supports precoated with 1 mg/mL polyethylenimine diluted in borate buffer pH 8.3 according to the protocol previously described for mesencephalic cultures. […] They were fed daily by replacing 70% of the medium. […]
# Glucose uptake was measured in individual cortical neurons using the fluorescent glucose analogue 2-NBDG (Abcam). […] The fluorescent signal (excitation, 465 nm; emission, 540 nm) was acquired using an Arrayscan (ThermoFischer Scientific) and quantified using ImageJ. The average pixel intensity over the surface of each cell body was determined under the different experimental conditions. Background fluorescence was subtracted from raw data, and the results were expressed as a percentage of mean fluorescence intensity per cell under control conditions. 100 cells were analysed under each test condition.
# [1] = in humans; cited from earlier work
Substance,glucose uptake (cortical neurons),Brain/plasma ratio [1]
insulin,increased glucose uptake,–
Aducanumab: antibody used to neutralize Aβ peptides,–,1.3%
